Values of other authors in PubChem BioAssay AID1811.

How the values were obtained:
Assay in all cases: PubChem AID 1811
ornithine decarboxylase = details: PDB complex binding affinities from literature; Ki when reported
6-phosphofructokinase = details: PDB complex binding affinities from literature; Ki when reported
lysozyme = details: PDB complex binding affinities from literature; Kd when reported
[1] = target: phosphonopyruvate hydrolase; details: PDB complex binding affinities from literature; Ki when reported
[2] = target: phosphoenolpyruvate-protein phosphotransferase; details: PDB complex binding affinities from literature; Ki when reported
[3] = target: mannose-binding protein-c; details: PDB complex binding affinities from literature; Ki when reported
beta-phosphoglucomutase = details: PDB complex binding affinities from literature; Ki when reported
proline-trna synthetase = details: PDB complex binding affinities from literature; Ki when reported
fmn-binding protein = details: PDB complex binding affinities from literature; Kd when reported
nadh oxidase = details: PDB complex binding affinities from literature; Kd when reported
mutator mutt protein = details: PDB complex binding affinities from literature; Kd when reported
[4] = target: histone acetylatransferase pcaf; details: PDB complex binding affinities from literature; IC50 when reported
1RYH A = details: PDB complex binding affinities from literature; Kd when reported
[5] = target: l-arginine glycine amidinotransferase; details: PDB complex binding affinities from literature; Ki when reported
diga16 = details: PDB complex binding affinities from literature; Kd when reported
arginase 1 = details: PDB complex binding affinities from literature; Ki when reported
[6] = target: serine/threonine-protein kinase chk1; details: PDB complex binding affinities from literature; Ki when reported
[7] = target: hepatocyte growth factor receptor; details: PDB complex binding affinities from literature; Kd when reported
neocarzinostatin = details: PDB complex binding affinities from literature; Kd when reported
[8] = target: hypoxia-inducible factor 1 alpha inhibitor; details: PDB complex binding affinities from literature; Ki when reported
uracil-dna glycosylase = details: PDB complex binding affinities from literature; Ki when reported
[9] = target: pulmonary surfactant-associated protein d; details: PDB complex binding affinities from literature; IC50 when reported
[10] = target: peroxisome proliferator activated receptor ppar; details: PDB complex binding affinities from literature; IC50 when reported
[11] = target: proto-oncogene tyrosine-protein kinase src; details: PDB complex binding affinities from literature; IC50 when reported
[12] = target: phospholipase a2 isoform 3; details: PDB complex binding affinities from literature; Kd when reported
[13] = target: pyridoxal phosphate biosynthetic protein pdxj; details: PDB complex binding affinities from literature; Kd when reported
[14] = target: eukaryotic peptide chain release factor gtp; details: PDB complex binding affinities from literature; Kd when reported
[15] = target: adp-ribosylation factor-like protein 3; details: PDB complex binding affinities from literature; Kd when reported
[16] = target: protein-glutamine glutamyltransferase e; details: PDB complex binding affinities from literature; Kd when reported
elongation factor 2 = details: PDB complex binding affinities from literature; Kd when reported
1RYF A = details: PDB complex binding affinities from literature; Kd when reported
[17] = target: interferon-inducible gtpase; details: PDB complex binding affinities from literature; Kd when reported
elongation factor g = details: PDB complex binding affinities from literature; Kd when reported
[18] = target: elongation factor tu (ef-tu); details: PDB complex binding affinities from literature; Kd when reported
[19] = target: phenazine biosynthesis protein phzf; details: PDB complex binding affinities from literature; Kd when reported
[20] = target: aminolevulinic acid dehydratase; details: PDB complex binding affinities from literature; Ki when reported
[21] = target: phosphoglycerate mutase 1; details: PDB complex binding affinities from literature; Ki when reported
beta-arrestin 1 = details: PDB complex binding affinities from literature; Kd when reported
streptavidin = details: PDB complex binding affinities from literature; Kd when reported
[22] = target: cation-independent mannose 6-phosphate receptor; details: PDB complex binding affinities from literature; Kd when reported
[23] = target: cation-dependent mannose-6-phosphate receptor; details: PDB complex binding affinities from literature; Kd when reported
dihydrofolate reductase = details: PDB complex binding affinities from literature; Kd when reported
ctp synthase = details: PDB complex binding affinities from literature; Ki when reported
[24] = target: chloramphenicol acetyltransferase iii; details: PDB complex binding affinities from literature; Ki when reported
chorismate mutase = details: PDB complex binding affinities from literature; Ki when reported

Which Ki (ornithine decarboxylase) does the source give for `CN[C@@H]1[C@@H](O)[C@@H](O[C@@H]2[C@@H](O)[C@H](O[C@H]3O[C@H]([C@H](C)O)[C@@H](O)[C@H](O)[C@H]3N)[C@@H](N)C[C@H]2N)OC[C@]1(C)O` here?
Its Ki is 8000 µM.

For `O=P(O)(O)OC[C@H]1O[C@](O)(CO)[C@@H](O)[C@@H]1O`, which Ki (6-phosphofructokinase) is on record?
Its Ki is 0.11 µM.

With `Oc1cccc(Cl)c1` as the compound, how does the Kd (lysozyme) read?
The Kd was 56 µM.

Which results are given for `O=C(O)C(=O)O`?
Ki [1]: 17 µM; Ki [2]: 280 µM

With `CC(=O)N[C@@H]1[C@@H](O)[C@H](O)[C@@H](CO)O[C@@H]1O` as the compound, how does the Ki [3] read?
The Ki was 14400 µM.

For `O=P(O)(O)O[C@H]1O[C@H](CO)[C@H](O)[C@H](O)[C@H]1O`, which Ki (beta-phosphoglucomutase) is on record?
The Ki was 30 µM.

Which Ki (proline-trna synthetase) does the source give for `Nc1ncnc2c1ncn2[C@@H]1O[C@H](COS(=O)(=O)NC(=O)[C@@H]2CCCN2)[C@@H](O)[C@H]1O` here?
Its Ki is 0.05 µM.

Which Kd (fmn-binding protein) does the source give for `Cc1cc2nc3c(=O)[nH]c(=O)nc-3n(C[C@H](O)[C@H](O)[C@H](O)COP(=O)(O)O)c2cc1C` here?
Its Kd is 0.00043 µM.

What about the Kd (nadh oxidase) of the same compound?
Its Kd is 0.09 µM.

With `Nc1nc2c([nH]c(=O)n2[C@H]2C[C@H](O)[C@@H](COP(=O)(O)O)O2)c(=O)[nH]1` as the compound, how does the Kd (mutator mutt protein) read?
The Kd was 0.052 µM.

With `Cc1ccc(NCCCN)c([N+](=O)[O-])c1` as the compound, how does the IC50 [4] read?
Its IC50 is 1.6 µM.

With `Nc1nc2c(ncn2[C@@H]2O[C@H](COP(=O)(O)OP(=O)(O)NP(=O)(O)O)[C@@H](O)[C@H]2O)c(=O)[nH]1` as the compound, how does the Kd (1RYH A) read?
The Kd was 0.0276 µM.

Which Ki [5] does the source give for `NCCC[C@H](N)C(=O)O` here?
The Ki was 253 µM.

What about the Kd (diga16) of the same compound?
The Kd was 0.03 µM.

What about the Ki (arginase 1) of the same compound?
Its Ki is 1000 µM.

With `CN[C@@H]1C[C@H]2O[C@@](C)([C@@H]1OC)n1c3ccccc3c3c4c(c5c6ccccc6n2c5c31)C(=O)NC4=O` as the compound, how does the Ki [6] read?
Its Ki is 0.0056 µM.

Which Kd [7] does the source give for `COC(=O)[C@@]1(O)C[C@H]2O[C@]1(C)n1c3ccccc3c3c4c(c5c6ccccc6n2c5c31)C(=O)NC4` here?
Its Kd is 0.01 µM.

Which Kd (neocarzinostatin) does the source give for `CN[C@H]1[C@@H](O[C@@H]2/C3=C/C#C[C@H]4O[C@@]4([C@H]4COC(=O)O4)C#CC3=C[C@H]2OC(=O)c2c(O)ccc3c(C)cc(OC)cc23)O[C@H](C)[C@H](O)[C@@H]1O` here?
Its Kd is 0.0001 µM.

For `O=C(O)C(=O)N[C@H](Cc1ccccc1)C(=O)O`, which Ki [8] is on record?
Its Ki is 83 µM.

With `O=c1cc[nH]c(=O)[nH]1` as the compound, how does the Ki (uracil-dna glycosylase) read?
The Ki was 0.088 µM.

For `OC[C@H]1O[C@H](O[C@H]2[C@H](O)[C@@H](O)[C@@H](O[C@H]3[C@H](O)[C@@H](O)[C@H](O)O[C@@H]3CO)O[C@@H]2CO)[C@H](O)[C@@H](O)[C@@H]1O`, which IC50 [9] is on record?
The IC50 was 940 µM.

For `CC/C=C\C/C=C\C/C=C\C/C=C\C/C=C\CCCC(=O)O`, which IC50 [10] is on record?
Its IC50 is 4 µM.

Which IC50 [11] does the source give for `CN1CCN(Cc2ccc(C(=O)Nc3cccc(Nc4nccc(-c5cccnc5)n4)c3)cc2)CC1` here?
Its IC50 is 1.63 µM.

For `O=C(O)c1cccnc1Nc1cccc(C(F)(F)F)c1`, which Kd [12] is on record?
The Kd was 43 µM.

With `CC(=O)[C@@H](O)[C@H](O)COP(=O)(O)O` as the compound, how does the Kd [13] read?
The Kd was 54 µM.

For `Nc1nc2c(ncn2[C@@H]2O[C@H](COP(=O)(O)OP(=O)(O)O)[C@@H](O)[C@H]2O)c(=O)[nH]1`, which Kd [14] is on record?
The Kd was 3.8 µM.

And the Kd [15]?
Its Kd is 0.024 µM.

What about the Kd [16] of the same compound?
The Kd was 1.7 µM.

And the Kd (elongation factor 2)?
The Kd was 3.9 µM.

What about the Kd (1RYF A) of the same compound?
Its Kd is 0.0016 µM.

What about the Kd [17] of the same compound?
Its Kd is 0.64 µM.

And the Kd (elongation factor g)?
Its Kd is 11 µM.

And the Kd [18]?
Its Kd is 1 µM.

Which Kd [19] does the source give for `Nc1c(O)cccc1C(=O)O` here?
Its Kd is 1.4 µM.

With `CCCCC(=O)O` as the compound, how does the Ki [20] read?
The Ki was 2000 µM.

For `O=P(O)(O)OC1C(OP(=O)(O)O)C(OP(=O)(O)O)C(OP(=O)(O)O)C(OP(=O)(O)O)C1OP(=O)(O)O` (stereo not given), which Ki [21] is on record?
Its Ki is 4 µM.

And the Kd (beta-arrestin 1)?
The Kd was 0.085 µM.

Which Kd (streptavidin) does the source give for `NC1=N[C@H]2[C@H](CS[C@H]2CCCCC(=O)O)N1` here?
The Kd was 1 µM.

Which results are given for `O=P(O)(O)OC[C@H]1O[C@H](O)[C@@H](O)[C@@H](O)[C@@H]1O`?
Kd [22]: 0.001 µM; Kd [23]: 8 µM

For `Nc1nc2ncc(CNc3ccc(C(=O)N[C@@H](CCC(=O)O)C(=O)O)cc3)nc2c(=O)[nH]1`, which Kd (dihydrofolate reductase) is on record?
The Kd was 9.51 µM.

For `Nc1ccn([C@@H]2O[C@H](COP(=O)(O)OP(=O)(O)OP(=O)(O)O)[C@@H](O)[C@H]2O)c(=O)n1`, which Ki (ctp synthase) is on record?
Its Ki is 110 µM.

Which Ki [24] does the source give for `CC(=O)O[C@H]1C[C@@]2(C)[C@@H](C[C@@H](O)[C@H]3[C@@]4(C)CC[C@@H](O)[C@@H](C)[C@@H]4CC[C@@]32C)/C1=C(\CCC=C(C)C)C(=O)O` here?
The Ki was 5.4 µM.

With `N[C@@H](Cc1ccc(O)cc1)C(=O)O` as the compound, how does the Ki (chorismate mutase) read?
Its Ki is 50 µM.
